The values below come from the OPERA property sets (Mansouri et al. 2018).

Each structure is given as a SMILES string. Values after ≈ are worked out from the molar mass of the structure shown.

A word on the solubility: it is how much of the substance goes into solution per volume.

The conditions of the data set: experimental values compiled from the literature.
In turn, `O=C(O)CNc1c([N+](=O)[O-])cc([N+](=O)[O-])cc1[N+](=O)[O-]` displayed a solubility of 4.05 mM (≈ 1160 µg/mL).
The result for `CC(O)C([N+](=O)[O-])[N+](=O)[O-]` (stereo unspecified) reads 1200 mM (≈ 180000 µg/mL); that for `CCOP(=O)(OC)OC`, 3240 mM (≈ 500000 µg/mL).
The result for `CCCCOP(C)(=O)OCCCC` reads 38.4 mM (≈ 8000 µg/mL); that for `Nc1cc([N+](=O)[O-])c(O)c([N+](=O)[O-])c1`, 4.12 mM (≈ 820 µg/mL).
The result for `CCCCO[PH](=O)OCCCC` reads 37.6 mM (≈ 7300 µg/mL); that for `CCNc1c([N+](=O)[O-])cc([N+](=O)[O-])cc1[N+](=O)[O-]`, 0.39 mM (≈ 100 µg/mL); that for `CCCCOP(=O)(CC)OCCCC`, 27 mM (≈ 6000 µg/mL).
The compound `O=[N+]([O-])c1cc([N+](=O)[O-])c(O)cc1O` registered a solubility of 0.39 mM (≈ 78.1 µg/mL).
The result for `O=[N+]([O-])C(CCl)([N+](=O)[O-])[N+](=O)[O-]` reads 551 mM (≈ 110000 µg/mL); that for `COC(=O)CO[N+](=O)[O-]`, 181 mM (≈ 24400 µg/mL).
For the compound `O=C(OCC([N+](=O)[O-])([N+](=O)[O-])[N+](=O)[O-])c1ccccc1C(=O)OCC([N+](=O)[O-])([N+](=O)[O-])[N+](=O)[O-]`, the solubility was found to be 0.264 mM (≈ 130 µg/mL).
The result for `O=C(O)C1(O)c2ccccc2-c2ccccc21` reads 10.8 mM (≈ 2450 µg/mL).
The value for `O=[N+]([O-])C(Br)([N+](=O)[O-])[N+](=O)[O-]` was 17 mM (≈ 3900 µg/mL); that for `CCN(c1c([N+](=O)[O-])cc([N+](=O)[O-])cc1[N+](=O)[O-])[N+](=O)[O-]` was 0.199 mM (≈ 60 µg/mL).
The value for `CN(/C(N)=N/[N+](=O)[O-])[N+](=O)[O-]` was 245 mM (≈ 40000 µg/mL).
